Results reported in ChEMBL document CHEMBL1129852, “Peptidyl -keto thiazole as potent thrombin inhibitors” (Bioorg Med Chem Lett, 1997).

Target: Prothrombin (Homo sapiens, UniProt P00734)
Experiment: Inhibition of thrombin

`CC1CNc2c(cccc2S(=O)(=O)N[C@@H](CCCNC(=N)N)C(=O)N2CCC(C)C[C@@H]2C(=O)O)C1` (single isomer, unassigned) [ARGATROBAN] gave an IC50 of 600 nM.
